The target in one experiment is κ opioid receptor (Cavia porcellus, UniProt P41144). Nature of the experiment: opioid receptor binding in guinea pig brain, [3H]U69,593. To be noted: read-out: [3H] U69,593 (κ), Table 4 other series.
The next experiment concerns the target δ opioid receptor (Cavia porcellus, UniProt A0A286XTF2). Nature of the experiment: opioid receptor binding in guinea pig brain, [3H]Naltrindole. To be noted: read-out: [3H] Naltrindole (δ), Table 4 other series.
A further experiment deals with μ opioid receptor (Cavia porcellus, UniProt A0ACM8Q262). Nature of the experiment: opioid receptor binding in guinea pig brain, [3H]DAMGO. The conditions noted are these: read-out: [3H] DAMGO (μ), Table 4 other series.
For the next experiment, the target named is human δ opioid receptor (Homo sapiens, UniProt P41143). Nature of the experiment: binding to cloned human receptor in CHO cell membranes, [3H]Naltrindole. To be noted: read-out: [3H] Naltrindole (δ); Table 4 other series; marked a: chinese hamster ovary.
Another experiment concerns the target human κ opioid receptor (Homo sapiens, UniProt P41145). Nature of the experiment: binding to cloned human receptor in CHO cell membranes, [3H]U69,593. The conditions noted are these: read-out: [3H] U69,593 (κ); Table 4 other series; marked a: chinese hamster ovary.
Another experiment addresses human μ opioid receptor (Homo sapiens, UniProt P35372). Put plainly: binding to cloned human receptor in CHO cell membranes, [3H]DAMGO. To be noted: read-out: [3H] DAMGO (μ); Table 4 other series; marked a: chinese hamster ovary.

Sequences of proteins named here, by UniProt entry; tags and fusion partners are left off. Residues count along the entry.
UniProt P41144, whole entry: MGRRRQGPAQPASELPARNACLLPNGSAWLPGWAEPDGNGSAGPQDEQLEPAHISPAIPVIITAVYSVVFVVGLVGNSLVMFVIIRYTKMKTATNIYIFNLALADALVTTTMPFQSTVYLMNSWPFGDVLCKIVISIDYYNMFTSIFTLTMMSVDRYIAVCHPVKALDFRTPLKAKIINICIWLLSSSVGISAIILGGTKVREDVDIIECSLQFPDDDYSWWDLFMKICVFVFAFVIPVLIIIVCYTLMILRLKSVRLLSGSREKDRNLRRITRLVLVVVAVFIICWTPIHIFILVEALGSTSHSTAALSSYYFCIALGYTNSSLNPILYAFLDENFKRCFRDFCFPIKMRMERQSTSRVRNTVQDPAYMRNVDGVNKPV
UniProt A0ACM8Q262, 1-400: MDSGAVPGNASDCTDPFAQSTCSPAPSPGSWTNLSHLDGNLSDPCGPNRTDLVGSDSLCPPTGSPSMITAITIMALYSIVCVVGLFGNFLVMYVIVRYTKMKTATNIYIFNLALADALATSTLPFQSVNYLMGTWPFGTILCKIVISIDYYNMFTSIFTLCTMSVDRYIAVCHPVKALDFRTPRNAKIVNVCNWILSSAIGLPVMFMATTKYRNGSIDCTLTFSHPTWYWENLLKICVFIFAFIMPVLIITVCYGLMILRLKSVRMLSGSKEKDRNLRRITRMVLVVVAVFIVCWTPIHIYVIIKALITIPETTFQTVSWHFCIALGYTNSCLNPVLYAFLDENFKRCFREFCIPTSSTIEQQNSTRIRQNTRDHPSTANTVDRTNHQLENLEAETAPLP
UniProt P41145, whole entry: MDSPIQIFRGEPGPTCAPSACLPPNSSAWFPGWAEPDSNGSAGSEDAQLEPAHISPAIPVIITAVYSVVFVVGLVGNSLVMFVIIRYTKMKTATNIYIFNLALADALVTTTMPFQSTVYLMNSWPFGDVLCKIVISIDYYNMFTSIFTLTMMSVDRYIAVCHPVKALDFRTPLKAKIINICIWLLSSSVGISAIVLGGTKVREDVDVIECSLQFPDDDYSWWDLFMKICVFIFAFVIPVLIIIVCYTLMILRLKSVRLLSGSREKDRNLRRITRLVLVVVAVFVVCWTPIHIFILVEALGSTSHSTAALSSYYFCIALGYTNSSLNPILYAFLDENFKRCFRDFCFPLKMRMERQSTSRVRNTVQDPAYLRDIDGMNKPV
UniProt P35372, whole entry: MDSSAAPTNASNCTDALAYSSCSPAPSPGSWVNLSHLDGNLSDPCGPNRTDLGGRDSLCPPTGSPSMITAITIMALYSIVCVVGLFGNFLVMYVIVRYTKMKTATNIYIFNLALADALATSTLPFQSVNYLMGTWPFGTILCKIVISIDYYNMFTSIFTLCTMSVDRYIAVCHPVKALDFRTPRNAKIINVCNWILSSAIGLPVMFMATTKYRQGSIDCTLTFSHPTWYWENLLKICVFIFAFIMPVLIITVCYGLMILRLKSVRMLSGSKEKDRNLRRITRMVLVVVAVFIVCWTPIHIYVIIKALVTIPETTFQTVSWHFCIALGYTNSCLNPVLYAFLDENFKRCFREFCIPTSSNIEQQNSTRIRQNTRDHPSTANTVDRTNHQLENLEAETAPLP

Where only a bound is given, the exact number is not on record here.

Regarding `CNC(=O)c1ccc2c3c1O[C@H]1[C@@H](O)C=C[C@H]4[C@@H](C2)N(C)CC[C@@]341`, the Ki on κ opioid receptor and at δ opioid receptor was over 10 µM in each case.

`NC(=O)c1ccc2c3c1O[C@H]1c4[nH]c5ccccc5c4C[C@@]4(O)[C@@H](C2)N(CC2CC2)CC[C@]314`: the Ki was found to be 0.047 µM at μ opioid receptor, 0.099 µM on κ opioid receptor and 0.00033 µM on δ opioid receptor.

For `O=CNc1ccc2c3c1OC1C(=O)CCC4(O)C(C2)N(CC2CC2)CCC314` (single isomer, unassigned), the Ki came to 0.28 µM at human δ opioid receptor, 0.0023 µM at human κ opioid receptor and 0.0041 µM at human μ opioid receptor.

Values taken from patent US9932349B2 (priority 2000, dated 2018).
